Measured values: US20150183737A1 (published 2015)

Biological target: T1, purified murine COX-2 (Mus musculus, UniProt Q05769)
T1 sequence (Q05769 18-604): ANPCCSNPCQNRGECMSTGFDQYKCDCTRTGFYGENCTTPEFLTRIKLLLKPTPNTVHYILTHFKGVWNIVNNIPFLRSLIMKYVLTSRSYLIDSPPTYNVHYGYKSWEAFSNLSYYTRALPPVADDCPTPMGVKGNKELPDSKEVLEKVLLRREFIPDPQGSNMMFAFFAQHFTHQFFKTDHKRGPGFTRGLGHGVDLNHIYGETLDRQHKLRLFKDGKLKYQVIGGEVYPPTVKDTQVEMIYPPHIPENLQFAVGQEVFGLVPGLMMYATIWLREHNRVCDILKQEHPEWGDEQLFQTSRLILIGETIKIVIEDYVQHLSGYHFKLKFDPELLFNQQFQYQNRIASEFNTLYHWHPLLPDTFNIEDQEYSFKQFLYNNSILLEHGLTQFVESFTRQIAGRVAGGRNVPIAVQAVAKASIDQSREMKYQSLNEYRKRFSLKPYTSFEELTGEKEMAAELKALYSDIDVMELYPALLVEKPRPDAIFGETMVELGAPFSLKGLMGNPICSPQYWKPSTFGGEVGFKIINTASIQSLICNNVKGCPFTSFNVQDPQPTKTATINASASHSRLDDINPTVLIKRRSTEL
Test: Inhibition of mCOX-2-dependent oxygenation of 2-AG and AA by lumiracoxib and derivatives in vitro
Type: biochemical
Parameters: dose or concentration left out as unconfirmed

[1] = read-out: Maximum inhibition of AA oxygenation

SMILES	inhibition [1]	inhibition (read-out: Maximum inhibition of 2-AG oxygenation)
Cc1ccc(Nc2c(F)cccc2Cl)c(CC(=O)O)c1	25%	–
O=C(O)Cc1ccccc1Nc1c(F)cccc1Cl [Compound 109]	15%	–
O=C(O)Cc1ccccc1Nc1ccccc1Cl [Compound 110]	0%	–
O=C(O)Cc1ccccc1Nc1ccccc1 [Compound 112]	15%	8%
O=C(O)Cc1ccccc1Nc1c(F)cccc1F [Compound 114]	10%	–

Read-outs that look alike come from different tables or passages of the source.
